# In patent US20260144862A1, “MATERIALS AND METHODS TO TREAT EPSTEIN-BARR VIRUS (EBV) AND EBV-INDUCED DISEASES” (Medizinische Universität Wien, priority 2022, published 2026):
# Target: T1, HLA-E (Homo sapiens, UniProt P13747)
# T1 construct: expressed in transfected cells; host or cells: mouse lymphoma cell line RMA-S/HLA-E/LFA-3, a gift from Chiara Romagnani, DRFZ Berlin
# Assay: HLA-E stabilization by UL40 peptides on HLA-E-expressing RMA-S cells
# Format: cell-based
# Settings: HLA-E-expressing RMA-S cells incubated with UL40 peptide
# From the text: Functionally, the expansion of NKG2C^+ NK cells in response to HCMV infections depends on a highly polymorphic HCMV UL40-encoded peptide in the respective infecting HCMV variant, which upregulates the NKG2C ligand HLA-E on the surface of HCMV-infected cells^52. […] HCMV variants were obtained from all 145 HCMV-seropositive MS patients during an episode of HCMV reactivation between EBV seroconversion and MS diagnosis, as well as from all HCMV seropositive EBNA^high (N=80) and EBNA^low (N=85) controls in any of the serum samples collected from the individuals over time. […] Therefore, we incubated HLA-E-expressing RMA-S cells with each of the 18 UL40 peptides and measured HLA-E expression on the cell surface.
sequence,measurement,value
VMAPRTLVL [HCMV UL40 peptide variant],HLA-E Upregulation,99.6%
